Test results taken from PMC10540216, “Activity Guided Azide-methyllysine Photo-trapping for Substrate Profiling of Lysine Demethylases” (Journal of the American Chemical Society, 2023).

Test system: KDM4A-I71AzF
Assay: CASI: photo-crosslinking with HEK293T cell extracts, StrepTactin enrichment and LC-MS/MS proteomics;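 note: lysates from HEK293T cells pretreated with a KDM4 inhibitor to raise proteome methylation, affinity-purified after ±UV, gel-resolved, trypsin-digested, with exclusive unique peptides per protein averaged per condition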
Format: binding, human
Settings: sheet "Final results but with 0.01"

B1: NUP93_HUMAN (protein, UniProt Q8N1F7 1-819, looked up)
Nuclear pore complex protein …: MDTEGFGELLQQAEQLAAETEGISELPHVERNLQEIQQAGERLRSRTLTRTSQETADVKASVLLGSRGLDISHISQRLESLSAATTFEPLEPVKDTDIQGFLKNEKDNALLSAIEESRKRTFGMAEEYHRESMLVEWEQVKQRILHTLLASGEDALDFTQESEPSYISDVGPPGRSSLDNIEMAYARQIYIYNEKIVNGHLQPNLVDLCASVAELDDKSISDMWTMVKQMTDVLLTPATDALKNRSSVEVRMEFVRQALAYLEQSYKNYTLVTVFGNLHQAQLGGVPGTYQLVRSFLNIKLPAPLPGLQDGEVEGHPVWALIYYCMRCGDLLAASQVVNRAQHQLGEFKTWFQEYMNSKDRRLSPATENKLRLHYRRALRNNTDPYKRAVYCIIGRCDVTDNQSEVADKTEDYLWLKLNQVCFDDDGTSSPQDRLTLSQFQKQLLEDYGESHFTVNQQPFLYFQVLFLTAQFEAAVAFLFRMERLRCHAVHVALVLFELKLLLKSSGQSAQLLSHEPGDPPCLRRLNFVRLLMLYTRKFESTDPREALQYFYFLRDEKDSQGENMFLRCVSELVIESREFDMILGKLENDGSRKPGVIDKFTSDTKPIINKVASVAENKGLFEEAAKLYDLAKNADKVLELMNKLLSPVVPQISAPQSNKERLKNMALSIAERYRAQGISANKFVDSTFYLLLDLITFFDEYHSGHIDRAFDIIERLKLVPLNQESVEERVAAFRNFSDEIRHNLSEVLLATMNILFTQFKRLKGTSPSSSSRPQRVIEDRDSQLRSQARTLITFAGMIPYRTSGDTNARLVQMEVLMN
For B1, the “Fold change (+UV/-UV)” value was 0.6667.
